Data on four compounds can be found in PubChem BioAssay AID651822 (The Scripps Research Institute Molecular Screening Center, 2012).

The list shows a part of the results, in another mix than the full data. The source made the active and inactive calls. No stated cut-off is given here; in the data, active means inhibition above about 4.5%; inactive means the rest.

The assay has as its system Methionine sulfoxide reductase A (Bos taurus). The assay is described as follows: bovine MsrA inhibitors, retest, confirmation, biochemical, absorbance, HTS (AID 651822).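 Further: coupled to thioredoxin reductase with NADPH and selenocystamine and DMSO as substrate; 0% = vehicle only and 100% = full effect of reference inhibitor.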 The following applies: purified bovine MsrA, absorbance read-out; at 15.5 µM; stronger effect = higher value.
Regarding `CN(Cc1cccnc1)C(=O)COc1ccc(Cl)c(Cl)c1.O=[N+]([O-])c1cc([N+](=O)[O-])c(O)c([N+](=O)[O-])c1`, the inhibition is inactive: 2.58%.
For `Cc1nc2ccc3ccccc3c2s1.O=[N+]([O-])c1cc([N+](=O)[O-])c(O)c([N+](=O)[O-])c1`, the inhibition is inactive: 3.55%.
Turning to `O=[N+]([O-])c1cc([N+](=O)[O-])c(NCC2CCS(=O)(=O)C2)c([N+](=O)[O-])c1` (centres undefined), the inhibition is inactive: 3.42%.
Turning to `O=[N+]([O-])c1cc([N+](=O)[O-])c(OC2CCCCC2O)c([N+](=O)[O-])c1` (centres undefined), the inhibition was inactive: 2.39%.
